Test results reported in publication PMC3329467, “Stereoselective Regulations of P-Glycoprotein by Ginsenoside Rh2 Epimers and the Potential Mechanisms From the View of Pharmacokinetics” (PLoS ONE, 2012).

System: MCF-7/Adr cells
Experiment: cells
Details: Homo sapiens, NCI/ADR-RES, 72 h, read-out: IC50 of adriamycin

COc1cccc2c1C(=O)c1c(O)c3c(c(O)c1C2=O)C[C@@](O)(C(=O)CO)C[C@@H]3O[C@H]1C[C@H](N)[C@H](O)[C@H](C)O1 [Adriamycin, adriamycin]
IC50: 87.7 ± 15.8 µM
